According to patent publication US9023398B2, “Method for improving the aqueous solubility of poorly-soluble substances” (Kabushiki Kaisha Sangi, priority 2009, dated 2015):

Tests used:
[1] = Dissolution test of poorly-soluble substances using distilled water
[2] = Dissolution test of poorly-soluble substances using 2nd fluid for disintegration test (pH 6.8) of the Japanese Pharmacopoeia; assay type: physicochemical

## Nc1ncnc2nc[nH]c12 [compound 45, Adenine]
[1]; Adenine, water, elution time 120 min
  Dissolved amount: 1657.8 µg/mL

## Cc1ccc(S(=O)(=O)NC(=O)NN2CC3CCCC3C2)cc1 (centres unmarked) [compound 32, Gliclazide]
[2]; Gliclazide, elution time 10 min
  Dissolved amount: 206.1 µg/mL

## O=[N+]([O-])O[C@H]1CO[C@H]2[C@@H]1OC[C@H]2O[N+](=O)[O-] [compound 30, Isosorbide Dinitrate]
[2]; elution time 3 min
  Dissolved amount: 7156.8 µg/mL
[2]; elution time 120 min
  Dissolved amount: 7236.5 µg/mL
[1]; water, elution time 3 min
  Dissolved amount: 3465.7 µg/mL
[1]; water, elution time 10 min
  Dissolved amount: 3393.1 µg/mL
[1]; water, elution time 360 min
  Dissolved amount: 3466.0 µg/mL

## CN/C(=N/CCSCc1nc[nH]c1C)NC#N [compound 19, Cimetidine]
[2]; elution time 10 min
  Dissolved amount: 10921.2 µg/mL
[2]; elution time 30 min
  Dissolved amount: 11139.3 µg/mL
[1]; Dissolution test using water, elution time 3 min
  Dissolved amount: 6770.2 µg/mL

## CC[C@H]1OC(=O)[C@H](C)[C@@H](O[C@H]2C[C@@](C)(OC)[C@@H](O)[C@H](C)O2)[C@H](C)[C@@H](O[C@@H]2O[C@H](C)C[C@H](N(C)C)[C@H]2O)[C@](C)(O)C[C@@H](C)C(=O)[C@H](C)[C@@H](O)[C@]1(C)O [compound 28, Erythromycin]
[2]; elution time 3 min
  Dissolved amount: 2556.3 µg/mL
